In ChEMBL document CHEMBL4028884, “Discovery, Development, and Cellular Delivery of Potent and Selective Bicyclic Peptide Inhibitors of Grb7 Cancer Target” (J Med Chem, 2017):
The source made the active and inactive calls.

The chains behind the UniProt entries cited, without tags or fusion partners.
UniProt Q14451, whole entry: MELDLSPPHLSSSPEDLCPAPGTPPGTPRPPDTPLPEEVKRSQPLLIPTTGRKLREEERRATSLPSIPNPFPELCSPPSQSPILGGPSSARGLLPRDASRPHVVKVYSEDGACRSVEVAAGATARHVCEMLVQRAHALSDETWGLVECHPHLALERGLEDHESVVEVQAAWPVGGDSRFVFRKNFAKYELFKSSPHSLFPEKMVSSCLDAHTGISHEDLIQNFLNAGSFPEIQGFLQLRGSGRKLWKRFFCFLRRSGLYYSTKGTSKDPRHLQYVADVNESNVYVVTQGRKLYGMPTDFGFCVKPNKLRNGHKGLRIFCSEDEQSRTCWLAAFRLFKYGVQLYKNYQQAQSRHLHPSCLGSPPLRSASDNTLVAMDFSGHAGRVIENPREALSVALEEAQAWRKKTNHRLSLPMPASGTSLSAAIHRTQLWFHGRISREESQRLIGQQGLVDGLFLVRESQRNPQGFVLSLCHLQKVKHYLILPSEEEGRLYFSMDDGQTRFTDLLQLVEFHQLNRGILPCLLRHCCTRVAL

How the values were obtained:
Assay type in all cases: cell-based
[1] = target: Growth factor receptor-bound protein 7 (Homo sapiens) (UniProt Q14451); assay: Inhibition of GRB7-SHC interaction in human SKBR3 whole cells at 20 uM preincubated for 1 hr followed by fibronectin stimulation measured after 10 mins by Western blot analysis
[2] = target: Growth factor receptor-bound protein 7 (Homo sapiens) (UniProt Q14451); assay: Inhibition of GRB7-FAK interaction in human SKBR3 cells assessed as FAK detection in cell lysates at 20 uM preincubated for 1 hr followed by fibronectin stimulation measured after 10 mins by Western blot analysis
[3] = target: Growth factor receptor-bound protein 7 (Homo sapiens) (UniProt Q14451); assay: Inhibition of GRB7-HER2 interaction in human SKBR3 cells assessed as HER2 detection in whole cells at 20 uM preincubated for 1 hr followed by fibronectin stimulation measured after 10 mins by Western blot analysis
[4] = target: Growth factor receptor-bound protein 7 (Homo sapiens) (UniProt Q14451); assay: Inhibition of GRB7-FAK interaction in human SKBR3 cells assessed as FAK detection in whole cells at 20 uM preincubated for 1 hr followed by fibronectin stimulation measured after 10 mins by Western blot analysis
[5] = target: Growth factor receptor-bound protein 7 (Homo sapiens) (UniProt Q14451); assay: Inhibition of GRB7-SHC interaction in human SKBR3 cells assessed as SHC detection in cell lysates at 20 uM preincubated for 1 hr followed by fibronectin stimulation measured after 10 mins by Western blot analysis
[6] = target: Growth factor receptor-bound protein 7 (Homo sapiens) (UniProt Q14451); assay: Inhibition of GRB7-HER2 interaction in human SKBR3 cells assessed as HER2 detection in cell lysates at 20 uM preincubated for 1 hr followed by fibronectin stimulation measured after 10 mins by Western blot analysis

Measured: inhibition

CC[C@H](C)[C@H](NC(=O)[C@H](CCCCN)NC(=O)[C@@H](NC(=O)[C@H](CCC(N)=O)NC(=O)[C@H](CCCNC(=N)N)NC(=O)[C@@H]1CSCC(=O)N[C@@H](Cc2c[nH]c3ccccc23)C(=O)N[C@@H](Cc2ccccc2)C(=O)N[C@@H](CCC(=O)O)C(=O)NCC(=O)N[C@@H](Cc2ccc(O)cc2)C(=O)N[C@@H](CC(=O)O)C(=O)N[C@@H](CC(N)=O)C(=O)N[C@@H]([C@@H](C)O)C(=O)N[C@@H](Cc2ccccc2)C(=O)N2CCC[C@H]2C(=O)N1)[C@@H](C)CC)C(=O)N[C@@H](Cc1c[nH]c2ccccc12)C(=O)N[C@@H](Cc1ccccc1)C(=O)N[C@@H](CCC(N)=O)C(=O)N[C@@H](CC(N)=O)C(=O)N[C@@H](CCCNC(=N)N)C(=O)N[C@@H](CCCNC(=N)N)C(=O)N[C@@H](CCSC)C(=O)N[C@@H](CCCCN)C(=O)N[C@@H](Cc1c[nH]c2ccccc12)C(=O)N[C@@H](CCCCN)C(=O)N[C@@H](CCCCN)C(N)=O
active: all assays above
